Measured values: patent CN106632674A

Amino acid sequences for entries named in this document (tags omitted). Residues count along the entry.
UniProt Q15116, 25-170: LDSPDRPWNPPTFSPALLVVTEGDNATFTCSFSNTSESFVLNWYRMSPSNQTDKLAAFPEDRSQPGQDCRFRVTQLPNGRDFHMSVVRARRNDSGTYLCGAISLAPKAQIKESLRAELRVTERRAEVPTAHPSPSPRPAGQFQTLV

Experiments:
[1] = target: 抗原PD-1 (PD-1ECD released from PD-1-mFc by TEV protease, biotin-labelled) (human) (UniProt Q15116); experiment: BLI (Fortebio), error of kdis
[2] = target: 抗原PD-1 (PD-1ECD released from PD-1-mFc by TEV protease, biotin-labelled) (human) (UniProt Q15116); experiment: BLI (Fortebio), error of kon
[3] = target: 抗原PD-1 (PD-1ECD released from PD-1-mFc by TEV protease, biotin-labelled) (human) (UniProt Q15116); experiment: BLI (Fortebio), biotinylated PD-1 on SA sensor, antibody 3-fold dilutions from 200 nM

Substance: 阳性对照抗体5C4 (antibody)
- kdis误差 [1]: 6.37e-06 s⁻¹
- kon误差 [2]: 17700 M⁻¹ s⁻¹
- Kd [3]: 0.111 nM
- koff [3]: 0.000103 s⁻¹
- kon [3]: 927000 M⁻¹ s⁻¹
